Measurements reported in ChEMBL document CHEMBL5252531, “2015 Philip S. Portoghese Medicinal Chemistry Lectureship. Curing Hepatitis C Virus Infection with Direct-Acting Antiviral Agents: The Arc of a Medicinal Chemistry Triumph” (J Med Chem, 2016).

Experiments:
[1] = in vivo; conditions: cynomolgus monkey, liver/plasma, po, 20 mg/kg
[2] = in vivo; conditions: dog, po
[3] = in vivo; conditions: Sprague-Dawley, rat, liver/plasma, po, 20 mg/kg

## C=C[C@@H]1C[C@]1(NC(=O)[C@@H]1C[C@@H](Oc2ncc(OC)c3ccc(Cl)cc23)CN1C(=O)[C@@H](NC(=O)OC(C)(C)C)C(C)(C)C)C(=O)NS(=O)(=O)C1CC1
[1]
  Kp at 24 h: 410
[2]
  bioavailability: 61%
[3]
  Kp at 24 h: 300
